Data taken from paper PMC7473988 (Journal of Experimental Pharmacology, 2020).

The chains behind the UniProt entries cited, without tags or fusion partners.
UniProt P31645, whole entry: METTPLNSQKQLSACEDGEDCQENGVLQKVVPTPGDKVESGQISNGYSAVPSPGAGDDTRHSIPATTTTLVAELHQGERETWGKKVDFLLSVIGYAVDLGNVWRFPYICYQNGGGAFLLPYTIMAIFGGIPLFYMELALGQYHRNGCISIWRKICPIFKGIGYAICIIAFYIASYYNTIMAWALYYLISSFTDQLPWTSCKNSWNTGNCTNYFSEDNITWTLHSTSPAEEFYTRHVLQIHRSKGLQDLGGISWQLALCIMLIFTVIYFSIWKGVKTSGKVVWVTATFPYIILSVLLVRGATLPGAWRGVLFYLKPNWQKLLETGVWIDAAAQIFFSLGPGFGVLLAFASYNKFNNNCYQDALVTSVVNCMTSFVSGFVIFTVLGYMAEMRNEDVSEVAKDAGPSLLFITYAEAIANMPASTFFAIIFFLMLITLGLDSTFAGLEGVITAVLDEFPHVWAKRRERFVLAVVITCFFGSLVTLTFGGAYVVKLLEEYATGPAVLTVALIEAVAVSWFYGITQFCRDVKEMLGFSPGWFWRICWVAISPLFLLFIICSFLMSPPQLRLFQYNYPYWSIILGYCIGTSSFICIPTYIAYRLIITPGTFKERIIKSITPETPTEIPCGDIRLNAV

Legend:
[1] = biological target: hNET; details: read-out: NET binding KD, competition assay, [3H]-nisoxetine; cited from earlier work
[2] = biological target: SERT (Homo sapiens, UniProt P31645); test: cell-based
[3] = biological target: hDAT; details: read-out: DAT binding KD; competition assay, [3H]-WIN35428, hDAT; cited from earlier work

IC50 [2]: 257 µM
SMILES: CCOc1ccccc1OCC1CNCCO1 (stereo not drawn) [Viloxazine, Viloxazine hydrochloride]
Kd [1]: 0.155 µM
Kd [3]: > 100 µM

Structures can show the parent of a compound that is named as a salt.
